The data set is described as follows: Tail cuff blood pressure in mice. The following applies: dose required to prevent TETS-induced tonic seizures and death when administered singly.

Structures are written as SMILES.

Regarding `CN1C(=O)CN=C(c2ccccc2)c2cc(Cl)ccc21`, the “effect on blood pressure, single agent” value was “significant hypotension”.

The record behind these values is patent publication US11510929B2, “Mitigation of epileptic seizures by combination therapy using benzodiazepines and neurosteroids” (dated 2022).
